# scFv variants of Ab-14 (heavy chain) against a SARS-CoV-2 spike peptide

Antigen: PDVDLGDISGINAS, a 14-residue peptide of the SARS-CoV-2 spike HR2 region.

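The parent was found by panning a naive human phage display library on the peptide. These sequences belong to a second round, designed from the earlier measurements on random variants of the parent. Their group label is 14H_GP_Gen (GP: Gaussian process model; Gen: genetic algorithm; a sequence that several methods proposed may carry one label only). Affinity was read by AlphaSeq, a pooled yeast mating assay with surface-displayed partners. The frequency of each diploid, read from paired DNA barcodes, reflects how well the two displayed proteins bind. Scores were corrected for input abundance and mapped to Kd with protein pairs of known affinity run in the same pool. Each pool was mated in six replicate cultures.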

Ab-14 is the parent antibody, in scFv form: VH, then a 15-residue (Gly4Ser)3 linker, then VL. The light chain is unchanged in all variants.
VH: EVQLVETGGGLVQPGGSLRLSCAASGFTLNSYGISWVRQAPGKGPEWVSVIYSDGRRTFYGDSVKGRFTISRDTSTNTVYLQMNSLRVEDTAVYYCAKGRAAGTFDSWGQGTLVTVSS
VL: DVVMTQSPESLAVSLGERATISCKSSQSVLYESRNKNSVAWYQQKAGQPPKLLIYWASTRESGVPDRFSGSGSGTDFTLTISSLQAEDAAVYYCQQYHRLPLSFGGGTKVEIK

Each variant is given by its three heavy chain CDRs, as the data file delimits them; those of the parent are GFTLNSYGIS, VIYSDGRRTFYGDSVK, GRAAGTFDS.
The read-out is the apparent dissociation constant on a log10 scale (nM): the lower, the stronger.
Replicates are averaged; those with no signal do not enter the mean.
"nd" marks a missing value. The strain was present, yet no cells mated with the target were sequenced in that replicate, which points to weak or no binding.
Of ten entries with the parent sequence, four were seen in most replicates (averages 0.34 to 2.37), three in one and three in none, so single entries are noisy.
A sequence measured in both rounds can read differently, since the two assays cover different ranges.
Three control strains display no target. For all heavy chain designs, 1% of the pairings with them gave a signal, with a median of 2.08 and one signal in twenty below 0.84, so weak values seen in few replicates may be background. The control count says in how many pairings with the empty strains this scFv gave a signal, with their mean in brackets.
In the paper, a design with two or fewer of six values counts as a poor binder.

CDR-H1 | CDR-H2 | CDR-H3 | log10 Kd, replicates | mean log10 Kd (nM) | empty controls
GFSLNCYGIS | VIYSDGRRTAYGDSVK | GRAAGTFDS | -0.03 / 0.15 / -0.14 / -0.38 / 0.06 / -0.47 | -0.14 | 0 of 18
GFNLNSYGIS | VIYSDGRRTFYGDSVK | GMTAGTFDS | nd / nd / 0.32 / nd / 1.14 / nd | 0.73 | 0 of 18
GFDLNSYGIS | VIYSDGRRTFYGDSVK | GRQAGTFDQ | 1.13 / 1.53 / 0.80 / 1.15 / 1.29 / 1.23 | 1.19 | 1 of 18 (1.92)
GFDLNSYGIS | VIYSDGRRTFYGDSVK | GKTAGTFDT | -0.45 / 0.52 / -0.21 / -0.67 / -0.25 / -0.09 | -0.19 | 0 of 18
GFDLNSYGIS | VIYSDGRRTFYCDSVK | GRMAGTFDS | 2.08 / 0.45 / 0.88 / 0.23 / 0.74 / 2.05 | 1.07 | 1 of 18 (1.64)
GFELNSYGIS | VIYSDGRRTFYTDSVK | GQTAGTFDS | 0.53 / nd / 0.81 / 0.06 / 0.69 / 0.38 | 0.50 | 0 of 18
GFDLNSYGIS | VIYSDGKRTFYIDSVK | GRQAGTFDS | 0.20 / 0.04 / 0.17 / 0.15 / 0.23 / 0.12 | 0.15 | 0 of 18
GFSLNEYGIS | VIYSDGRRTFYMDSVK | GKAAGTFDS | 1.51 / 0.63 / 0.73 / 0.82 / nd / 1.20 | 0.98 | 0 of 18
GFHLNSYGIS | VIYSDGRRTFYHDSVK | GKTAGTFDS | 0.97 / 1.69 / 0.41 / 1.13 / 0.91 / 1.39 | 1.08 | 0 of 18
GFDLNSYGIS | VIYSDGRRTFYGDQVK | GRTAGTFDK | 1.11 / 1.92 / 0.35 / 0.05 / 0.48 / 0.76 | 0.78 | 1 of 18 (1.02)
GFNLNEYGIS | VIYSDGRRTFYGDQVK | GRTAGTFDS | 0.13 / -0.37 / -0.38 / -0.01 / -0.08 / 0.09 | -0.10 | 0 of 18
GFELNTYGIS | VIYSDGRRTFYGDSVK | GRQAGTFDS | 1.59 / 0.74 / 0.59 / 1.08 / 1.34 / 0.78 | 1.02 | 0 of 18
GFELNSYGIS | VIYADGRRTFYGDSVK | GEAAGTFDF | 0.20 / 0.06 / 0.09 / -0.33 / 0.12 / -0.22 | -0.01 | 0 of 18
MFDLNSYGIS | VIYSDGRRTFYSDSVK | GNAAGTFDS | nd / 2.04 / nd / nd / 4.29 / nd | 3.16 | 1 of 18 (1.78)
GFSLNSYGIS | VIYSDGRRTFYQDQVK | GEAAGTFDS | nd / 0.90 / 1.37 / 0.86 / 2.88 / 1.54 | 1.51 | 0 of 18
GFNLNSYGIS | VIYSDGRRTFYGDSVK | GLNAGTFDS | 0.55 / 0.12 / 1.54 / 0.59 / 0.76 / 0.45 | 0.67 | 0 of 18
GFDLNSYGIS | VIYSDGRRTFYADEVK | GRTAGTFDS | -0.12 / -0.07 / -0.73 / 0.13 / -0.18 / -0.29 | -0.21 | 1 of 18 (1.63)
GFSLNSYGIS | VIYSDGRRTFYGDRVK | GEAAGTFDK | 1.05 / 1.38 / 1.01 / 1.05 / 0.69 / 1.42 | 1.10 | 0 of 18
GFELNSYGIS | VIYSDGRRTFYSDQVK | GRTAGTFDS | 0.31 / 0.12 / 0.08 / 0.08 / -0.31 / 0.40 | 0.11 | 0 of 18
GFDLNSYGIS | VIYSDGRRTFYGDNVK | GQTAGTFDS | 0.01 / -0.35 / 0.08 / -0.22 / 0.10 / -0.58 | -0.16 | 0 of 18
GFDLNSYGIS | VIYSDGRRTYYGDSVK | GQAAGTFDS | 0.77 / 0.18 / -0.20 / -0.15 / -0.27 / 0.45 | 0.13 | 0 of 18
GFSLNEYGIS | VIYSDGRRTFYQDSVK | GRQAGTFDS | 0.15 / 0.05 / -0.46 / -0.39 / -0.51 / 0.01 | -0.19 | 0 of 18
GFDLNTYGIS | VIYSDGRRTFYHDSVK | GRTAGTFDS | -0.23 / -0.74 / -0.43 / -0.75 / -0.10 / 0.04 | -0.37 | 0 of 18
GFNLNSYGIS | VIYSDGRRTFYGDSVK | GRTAGTFDK | 1.41 / 1.34 / 0.82 / 1.02 / 1.01 / 1.07 | 1.11 | 0 of 18
KFDLNSYGIS | VIYSDGRRTFYGDSVK | GRTAGTFDS | 0.40 / 0.21 / 0.26 / 0.28 / 0.63 / 0.61 | 0.40 | 0 of 18
GFDLNSYGIS | VIYSDGRRTFYGDSVK | GKTAGTFDD | 0.28 / 0.40 / 0.10 / 0.15 / 0.11 / 0.18 | 0.20 | 0 of 18
GFDLNTYGIS | VIYSDGRRTAYGDSVK | GRAAGTFDS | -0.27 / 0.49 / -0.16 / -0.64 / -0.35 / -0.03 | -0.16 | 0 of 18
GFDLNSYGIS | VIYSDGRRTFYIDSVK | GQTAGTFDS | 0.25 / 0.04 / 0.07 / -0.12 / -0.12 / 0.28 | 0.07 | 0 of 18
GFNLNSYGIS | VIYSDGRRTFYGDKVK | GRQAGTFDS | nd / nd / 1.90 / 4.34 / nd / 1.39 | 2.54 | 1 of 18 (2.09)
GFDLNSYGIS | VIYSDGRRTFYGDSVK | GRHAGTFDT | nd / nd / nd / nd / nd / nd | nd | 0 of 18
GFTLESYGIS | VIYSDGRRTAYGDSVK | GRAAGTFDS | nd / nd / nd / 1.71 / 0.50 / 0.29 | 0.83 | 0 of 18
GFELNSYGIS | VIYADGRRTFYDDSVK | GKAAGTFDS | -0.34 / -1.70 / nd / -1.18 / -1.24 / -0.86 | -1.06 | 0 of 18
GFGLNSYGIS | VIYSDGRRTFYTDSVK | GNAAGTFDS | 1.90 / 0.29 / 0.09 / 0.74 / 0.19 / 0.74 | 0.66 | 0 of 18

Data: MIT Lincoln Laboratory AlphaSeq set, Li et al. 2023, doi:10.1038/s41467-023-39022-2, as distributed in FLAb.